Consider 42 compounds from patent US20060160798A1, “Viral polymerase inhibitors” (Boehringer Ingelheim (Canada) Ltd., priority 2001, published 2006).

Each structure is given as a SMILES string.

The target in the first assay is T1, hepatitis C virus RNA dependant polymerase (NS5B) (Hepatitis C virus genotype 1b, UniProt P26663).
Experiment: not given
The following applies: HCV NS5B polymerase, 10 nM enzyme, 1.5 hours at room temperature.
Turning to `CC(NC(=O)c1ccc2c(C3CCCC3)c(-c3ccccn3)n(C)c2c1)c1nc2ccc(C=CC(=O)O)cc2[nH]1` (stereo not drawn) [Entry 1018], the IC50 (commonly the concentration needed to halve the response being measured) is < 500 nM.

Still in this assay, the particulars now being: Table 7.
Consider `Cc1ccc(-c2c(C3CCCC3)c3ccc(C(=O)NC4(C(=O)Nc5ccc(-c6ccc(C(=O)O)o6)cc5)CCCC4)cc3n2C)cn1` [Entry 7033], for which the IC50 result is listed as “C B”.

In another assay the target is T1, hepatitis C virus RNA dependant polymerase (NS5B). The assay can be described thus: biochemical. As to conditions: IC50, HCV NS5B polymerase, 10 nM enzyme, 1.5 hours at room temperature.
Take `O=C(O)/C=C/c1ccc(NC(=O)C2(NC(=O)c3ccc4c(C5CCCCC5)c(-c5ccccc5)[nH]c4c3)CCCC2)cc1` [Entry 2002]: the IC50 lay in the range of 500 to 1000 nM. As to `CCN1CCC(NC(=O)c2ccc3c(C4CCCCC4)c(-c4ccoc4)[nH]c3c2)(C(=O)Nc2ccc(-c3csc(C(=O)O)n3)cc2)CC1` [Entry 2067], the IC50 was < 500 nM. As for `C[C@@H](NC(=O)c1ccc2c(C3CCCCC3)c(-c3ccoc3)[nH]c2c1)C(=O)Nc1ccc(/C=C/C(=O)O)cn1` [Entry 2009], the IC50 lay within 500 to 1000 nM. `O=C(O)/C=C/c1ccc(NC(=O)C2(NC(=O)c3ccc4c(C5CCCCC5)c(-c5ccoc5)[nH]c4c3)CCSCC2)cc1` [Entry 2025]: the IC50 was 500 to 1000 nM.

Regarding `O=C(O)/C=C/c1ccc(NC(=O)C2(NC(=O)c3ccc4c(C5CCCCC5)c(-c5ccoc5)n(Cc5ccccc5)c4c3)CCCC2)cc1` [Entry 2040], the concentration for half-maximal inhibition (IC50) was < 500 nM. Consider `CC(C)(NC(=O)c1ccc2c(C3CCCCC3)c(-c3ccoc3)[nH]c2c1)C(=O)Nc1ccc(-c2csc(C(=O)O)n2)cc1` [Entry 2061], for which the concentration for half-maximal inhibition (IC50) was < 500 nM. On to `CC(=O)Nc1ccc(-c2c(C3CCCCC3)c3ccc(C(=O)NC(C)(C)C(=O)Nc4ccc(/C=C/C(=O)O)cc4)cc3n2C)cc1C` [Entry 2104], for which the 50% inhibitory concentration (IC50) is < 500 nM.

For the compound `CCN1CCC(NC(=O)c2ccc3c(C4CCCCC4)c(-c4ccoc4)[nH]c3c2)(C(=O)Nc2ccc(/C=C/C(=O)O)cc2)CC1` [Entry 2088], the IC50 is < 500 nM.

In the case of `O=C(N[C@@H](Cc1c[nH]c2ccc(O)cc12)c1cscn1)c1ccc2c(C3CCCCC3)c(-c3ccccc3)[nH]c2c1` [Entry 1001], the IC50 fell in the range of 1000 to 10000 nM. `Cn1c(-c2ccccn2)c(C2CCCCC2)c2ccc(C(=O)NC(C)(C)C(=O)Nc3ccc(N)cc3)cc21` [Entry 2072, 3-Cyclohexyl-1-methyl-2-pyridin-2-yl-1H-indole-6-carboxylic acid[1-(4-amino-phenylcarbamoyl)-1-methyl-ethyl]-amide]: the IC50 is < 500 nM. The compound `CC(C)(NC(=O)c1ccc2c(C3CCCCC3)c(-c3ccoc3)[nH]c2c1)C(=O)Nc1ccc(-c2nc(C(=O)O)cs2)cc1` [Entry 2017] had an IC50 of 500 to 1000 nM.

Consider `Cn1c(-c2ccccn2)c(C2CCCCC2)c2ccc(C(=O)NC(C)(C)C(=O)Nc3ccc(NC(=O)C(=O)O)cc3)cc21` [Entry 2094], for which the IC50 was < 500 nM.

As to `Cn1c(-c2ccccn2)c(C2=CCCCC2)c2ccc(C(=O)NC3(C(=O)Nc4ccc(/C=C/C(=O)O)cc4)CCC3)cc21` [Entry 1032], the IC50 was < 500 nM. `CC#CCn1c(C(=O)O)cc2cc(NC(=O)[C@@H](C)NC(=O)c3ccc4c(C5CCCCC5)c(-c5ccoc5)[nH]c4c3)ccc21` [Entry 2014] came in with an IC50 of 1000 to 10000 nM. On to `Cn1c(-c2ccccc2)c(C2CCCCC2)c2ccc(C(=O)NC3(C(=O)Nc4ccc(/C=C/C(=O)O)cc4)CCCC3)cc21` [Entry 2034], for which the half-inhibitory concentration (IC50) was < 500 nM. `Cn1c(-c2ccoc2)c(C2CCCC2)c2ccc(C(=O)NC3(C(=O)Nc4ccc(/C=C/C(=O)O)cc4)CC3)cc21` [Entry 3004]: the IC50 was < 500 nM. Take `CN1CC[C@@](NC(=O)c2ccc3c(C4CCCCC4)c(-c4ccccn4)n(C)c3c2)(C(=O)Nc2ccc(/C=C/C(=O)O)cc2)C1` [Entry 2116]: the half-inhibitory concentration (IC50) is < 500 nM. On to `CCN1CCC(NC(=O)c2ccc3c(C4CCCCC4)c(-c4ccoc4)[nH]c3c2)(C(=O)Nc2ccc(/C=C/C(N)=O)cc2)CC1` [Entry 2078], for which the 50% inhibitory concentration (IC50) was < 500 nM.

As for `Cn1c(-c2ccccn2)c(C2CCCC2)c2ccc(C(=O)NC3(/C=C/c4ccc(/C=C/C(=O)O)cc4)CCCC3)cc21` [Entry 1015], the IC50 is < 500 nM.

In the case of `Cn1c(-c2ccccn2)c(C2CCCCC2)c2ccc(C(=O)NC3(C(=O)Nc4ccc(/C=C/C(=O)O)cc4)CCC3)cc21` [Entry 2090], the IC50 is < 500 nM. Consider `CC(C)(NC(=O)c1ccc2c(C3CCCCC3)c(-c3ccoc3)[nH]c2c1)C(=O)Nc1ccc(-c2csc(C(N)=O)n2)cc1` [Entry 2024], for which the IC50 is 500 to 1000 nM. As to `Cn1c(-c2ccc(NC(=O)c3ccc(C(=O)c4ccccc4)cc3)cn2)c(C2CCCCC2)c2ccc(C(=O)N[C@@H](Cc3c[nH]c4ccc(OCC(=O)O)cc34)C(=O)O)cc21` [Entry 1009], the IC50 lay within 1000 to 10000 nM.

For the compound `Cn1c(-c2ccccn2)c(C2CCCCC2)c2ccc(C(=O)NC(C)(C)C(=O)Nc3ccc(NC(=O)C(N)=O)cc3)cc21` [Entry 2077], the IC50 was < 500 nM.

The assay is the same for the next values; noted with them: IC50, Table 6.
For `Cn1c(-c2ccc(C(F)(F)F)cn2)c(C2CCCC2)c2ccc(C(=O)NC3(C(=O)Nc4ccc(/C=C/C(=O)O)cc4)CCC3)cc21` [Entry 6041], the IC50 is < 500 nM. The same measure, in the same setting: with `CN(C)C(=O)c1c(C2CCCC2)c2ccc(C(=O)NC3(C(=O)Nc4ccc(/C=C/C(=O)O)cc4)CCCC3)cc2n1C` [Entry 6107] the figure was 1000 to 10000 nM; with `Cn1c(-c2csc(-c3ccccc3)n2)c(C2CCCC2)c2ccc(C(=O)NC(C)(C)C(=O)Nc3ccc(/C=C/C(=O)O)cc3)cc21` [Entry 6012], 500 to 1000 nM. For the compound `CCNc1nc(-c2c(C3CCCC3)c3ccc(C(=O)NC4(C(=O)Nc5ccc(/C=C/C(=O)O)cc5)CCC4)cc3n2C)cs1` [Entry 6073], the IC50 was < 500 nM. In the case of `CCc1ccnc(-c2c(C3CCCC3)c3ccc(C(=O)NC4(C(=O)Nc5ccc(/C=C/C(=O)O)cc5)CCCC4)cc3n2C)c1` [Entry 6067], the IC50 is 1000 to 10000 nM. Regarding `COCCNc1nc(-c2c(C3CCCC3)c3ccc(C(=O)NC(C)(C)C(=O)Nc4ccc(/C=C/C(=O)O)cc4)cc3n2C)cs1` [Entry 6020], the IC50 is < 500 nM.

In the case of `Cn1c(-c2ccsc2)c(C2CCCC2)c2ccc(C(=O)NC3(C(=O)Nc4ccc(/C=C/C(=O)O)cc4)CCC3)cc21` [Entry 6040], the IC50 is < 500 nM. As for `Cn1c(-c2nccs2)c(C2CCCC2)c2ccc(C(=O)NC3(C(=O)Nc4ccc(/C=C/C(=O)O)cc4)CCCC3)cc21` [Entry 6051], the IC50 is < 500 nM. `Cn1c(-c2cscn2)c(C2CCCC2)c2ccc(C(=O)NC3(C(=O)Nc4ccc(/C=C/C(=O)O)cc4)CCC3)cc21` [Entry 6070]: the IC50 was < 500 nM. The same measure, in the same setting: to `Cn1c(-c2csc(-c3ccncc3)n2)c(C2CCCC2)c2ccc(C(=O)NC(C)(C)C(=O)Nc3ccc(/C=C/C(=O)O)cc3)cc21` [Entry 6011] belongs < 500 nM; to `CNc1nc(-c2c(C3CCCC3)c3ccc(C(=O)NC4(C(=O)Nc5ccc(/C=C/C(=O)O)cc5)CCC4)cc3n2C)cs1` [Entry 6072], < 500 nM.

The assay is the same for the next values; noted with them: IC50, Table 7.
Take `Cn1c(C(=O)O)cc2cc(NC(=O)C3(NC(=O)c4ccc5c(C6CCCC6)c(-c6ccsc6)n(C)c5c4)CCC3)ccc21` [Entry 7054]: the IC50 is < 500 nM. Consider `Cn1c(C(=O)O)cc2cc(NC(=O)C3(NC(=O)c4ccc5c(C6CCCC6)c(-c6cccc(N)n6)n(C)c5c4)CCC3)ccc21` [Entry 7027], for which the IC50 is < 500 nM. With `C/C(=C\c1ccc(NC(=O)C2(NC(=O)c3ccc4c(C5CCCC5)c(-c5cccc(C)n5)n(C)c4c3)CCC2)cc1)C(=O)O` [Entry 7022], the IC50 is < 500 nM. `Cc1cccc(-c2c(C3CCCC3)c3ccc(C(=O)NC4(C(=O)Nc5ccc(-c6ccc(C(=O)O)o6)cc5)CCCC4)cc3n2C)n1` [Entry 7021]: the IC50 was < 500 nM.

For the compound `Cn1c(-c2ccccn2)c(C2CCCC2)c2ccc(C(=O)NC3(C(=O)Nc4ccc(O)cc4)CCC3)cc21` [Entry 7072], the concentration for half-maximal inhibition (IC50) is < 500 nM. Regarding `C/C(=C\c1ccc(NC(=O)C2(NC(=O)c3ccc4c(C5CCCC5)c(-c5ccsc5)n(C)c4c3)CCC2)cc1)C(=O)O` [Entry 7053], the concentration for half-maximal inhibition (IC50) was < 500 nM.
